This test addresses T1, Pfbc1 (Plasmodium falciparum, UniProt Q02768).
T1 sequence (Q02768 1-376): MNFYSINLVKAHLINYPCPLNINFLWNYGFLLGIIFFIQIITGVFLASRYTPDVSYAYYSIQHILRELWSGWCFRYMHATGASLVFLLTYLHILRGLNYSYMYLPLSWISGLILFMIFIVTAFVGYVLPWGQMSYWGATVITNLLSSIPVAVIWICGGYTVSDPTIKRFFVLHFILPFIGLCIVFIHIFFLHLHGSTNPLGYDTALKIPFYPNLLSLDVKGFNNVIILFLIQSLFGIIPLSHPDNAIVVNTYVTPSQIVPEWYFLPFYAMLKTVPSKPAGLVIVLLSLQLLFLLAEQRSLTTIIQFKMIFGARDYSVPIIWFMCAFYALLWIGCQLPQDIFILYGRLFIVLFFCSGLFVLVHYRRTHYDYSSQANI
Nature of the test: Decylubiquinol-cytochrome c reductase activity of Pfbc1. Type of test: biochemical, P. falciparum.

For orientation: IC50 means the concentration needed to halve the response being measured.

As for `O=C1C(O)=C([C@H]2CC[C@H](c3ccc(Cl)cc3)CC2)C(=O)c2ccccc21` [Atovaquone, atovaquone, reference compound], the IC50 is 0.87 nM.

The values are drawn from article PMC8463279 (Acta Pharmaceutica Sinica. B, 2021).
